# In BindingDB's records for doi:10.1016/s0968-0896(99)00316-8 (Universita Degli Studi Di Firenze, 2000):
# Target: T1, Collagenase ColG (Hathewaya histolytica, UniProt Q9X721)
# T1 sequence (Q9X721 whole entry): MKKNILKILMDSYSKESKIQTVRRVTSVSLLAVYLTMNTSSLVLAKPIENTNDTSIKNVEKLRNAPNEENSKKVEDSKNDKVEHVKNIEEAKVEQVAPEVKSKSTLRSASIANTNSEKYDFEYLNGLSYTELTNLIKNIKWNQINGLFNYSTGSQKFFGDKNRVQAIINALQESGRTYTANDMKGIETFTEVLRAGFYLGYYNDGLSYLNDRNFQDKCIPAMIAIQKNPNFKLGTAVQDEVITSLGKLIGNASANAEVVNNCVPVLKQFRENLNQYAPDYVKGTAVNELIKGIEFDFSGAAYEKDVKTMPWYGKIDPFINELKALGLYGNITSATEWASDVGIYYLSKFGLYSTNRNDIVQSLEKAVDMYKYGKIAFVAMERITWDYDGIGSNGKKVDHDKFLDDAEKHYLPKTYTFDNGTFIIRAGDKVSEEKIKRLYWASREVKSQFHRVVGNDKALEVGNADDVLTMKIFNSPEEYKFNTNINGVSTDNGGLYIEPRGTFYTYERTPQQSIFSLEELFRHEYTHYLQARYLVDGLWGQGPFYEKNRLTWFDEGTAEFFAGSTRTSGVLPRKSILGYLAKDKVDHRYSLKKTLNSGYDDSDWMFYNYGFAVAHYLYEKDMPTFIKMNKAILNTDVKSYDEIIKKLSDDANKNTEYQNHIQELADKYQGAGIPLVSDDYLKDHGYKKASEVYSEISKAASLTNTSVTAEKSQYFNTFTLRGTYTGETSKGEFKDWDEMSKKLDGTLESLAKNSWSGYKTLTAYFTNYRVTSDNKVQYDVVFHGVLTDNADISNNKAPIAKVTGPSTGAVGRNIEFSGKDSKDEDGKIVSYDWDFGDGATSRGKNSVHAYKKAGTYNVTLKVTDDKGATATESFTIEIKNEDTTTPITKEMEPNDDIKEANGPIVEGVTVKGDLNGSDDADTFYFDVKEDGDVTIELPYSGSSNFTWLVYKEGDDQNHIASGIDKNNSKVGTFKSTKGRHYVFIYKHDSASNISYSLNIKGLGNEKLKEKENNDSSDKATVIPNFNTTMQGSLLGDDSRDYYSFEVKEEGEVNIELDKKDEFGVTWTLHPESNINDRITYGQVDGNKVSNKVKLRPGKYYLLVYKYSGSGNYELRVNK
# Assay: ChC Enzyme Inhibition Assay
# Conditions: not given
# Method: The rate of hydrolysis was determined from the change in absorbance at 324 nm using an extinction coefficient, 24700 M-1 cm-1 for FALGPA. Initial velocities were thus estimated using the direct linear plot-based procedure. The inhibition constant Ki was then determined by using Easson-Stedman plots and a linear regression program.
row,Structure (SMILES),Ki [nM]
1,CC(C(=O)NO)N(Cc1ccccc1Cl)C(=O)NS(=O)(=O)c1ccc(Cl)cc1 (configuration not stated) [2-({[(4-chlorobenzene)sulfonyl]carbamoyl}[(2-chlorophenyl)methyl]amino)-N-hydroxypropanamide],8
2,CC(C(=O)O)N(Cc1ccccc1Cl)C(=O)NS(=O)(=O)c1ccc(Cl)cc1 (configuration not stated) [2-({[(4-chlorobenzene)sulfonyl]carbamoyl}[(2-chlorophenyl)methyl]amino)propanoic acid],3400
3,CC(C(=O)NO)N(Cc1ccccc1Cl)S(=O)(=O)c1ccc([N+](=O)[O-])c(Cl)c1 (configuration not stated) [2-[(3-chloro-4-nitrobenzene)[(2-chlorophenyl)methyl]sulfonamido]-N-hydroxypropanamide],10
4,CC(C(=O)O)N(Cc1ccccc1Cl)S(=O)(=O)c1ccc([N+](=O)[O-])c(Cl)c1 (configuration not stated) [2-[(3-chloro-4-nitrobenzene)[(2-chlorophenyl)methyl]sulfonamido]propanoic acid],3100
5,COc1ccc(S(=O)(=O)N(Cc2ccccc2Cl)C(C)C(=O)O)cc1NC(=O)OC(C)(C)C (configuration not stated) [2-[(3-{[(tert-butoxy)carbonyl]amino}-4-methoxybenzene)[(2-chlorophenyl)methyl]sulfonamido]propanoic acid],3000
6,CC(C(=O)NO)N(Cc1ccccc1Cl)S(=O)(=O)c1ccc(Br)cc1 (configuration not stated) [2-[(4-bromobenzene)[(2-chlorophenyl)methyl]sulfonamido]-N-hydroxypropanamide],33
7,CC(C(=O)O)N(Cc1ccccc1Cl)S(=O)(=O)c1ccc(NC(=O)OC(C)(C)C)cc1 (configuration not stated) [2-[(4-{[(tert-butoxy)carbonyl]amino}benzene)[(2-chlorophenyl)methyl]sulfonamido]propanoic acid],2700
8,"CC(C(=O)NO)N(Cc1ccccc1Cl)S(=O)(=O)C(F)(F)C(F)(F)C(F)(F)C(F)(F)C(F)(F)C(F)(F)C(F)(F)C(F)(F)F (configuration not stated) [2-{[(2-chlorophenyl)methyl](1,1,2,2,3,3,4,4,5,5,6,6,7,7,8,8,8-heptadecafluorooctane)sulfonamido}-N-hydroxypropanamide]",8
9,"CC(C(=O)NO)N(Cc1ccccc1Cl)S(=O)(=O)c1c(F)c(F)c(F)c(F)c1F (configuration not stated) [2-{[(2-chlorophenyl)methyl](2,3,4,5,6-pentafluorobenzene)sulfonamido}-N-hydroxypropanamide]",5
10,"CC(C(=O)O)N(Cc1ccccc1Cl)S(=O)(=O)c1c(F)c(F)c(F)c(F)c1F (configuration not stated) [2-{[(2-chlorophenyl)methyl](2,3,4,5,6-pentafluorobenzene)sulfonamido}propanoic acid]",400
11,"Cc1cc(C)c(S(=O)(=O)N(Cc2ccccc2Cl)C(C)C(=O)O)c(C)c1 (configuration not stated) [2-{[(2-chlorophenyl)methyl](2,4,6-trimethylbenzene)sulfonamido}propanoic acid]",6800
12,"CC(C(=O)NO)N(Cc1ccccc1Cl)S(=O)(=O)c1cc(Cl)ccc1Cl (configuration not stated) [2-{[(2-chlorophenyl)methyl](2,5-dichlorobenzene)sulfonamido}-N-hydroxypropanamide]",15
13,"CC(C(=O)O)N(Cc1ccccc1Cl)S(=O)(=O)c1cc(Cl)ccc1Cl (configuration not stated) [2-{[(2-chlorophenyl)methyl](2,5-dichlorobenzene)sulfonamido}propanoic acid]",4100
14,"CC(C(=O)NO)N(Cc1ccccc1Cl)S(=O)(=O)c1cc(Cl)cc(Cl)c1O (configuration not stated) [2-{[(2-chlorophenyl)methyl](3,5-dichloro-2-hydroxybenzene)sulfonamido}-N-hydroxypropanamide]",9
15,"CC(C(=O)O)N(Cc1ccccc1Cl)S(=O)(=O)c1cc(Cl)cc(Cl)c1O (configuration not stated) [2-{[(2-chlorophenyl)methyl](3,5-dichloro-2-hydroxybenzene)sulfonamido}propanoic acid]",2400
16,CC(C(=O)NO)N(Cc1ccccc1Cl)S(=O)(=O)c1cccc([N+](=O)[O-])c1 (configuration not stated) [2-{[(2-chlorophenyl)methyl](3-nitrobenzene)sulfonamido}-N-hydroxypropanamide],11
17,CC(=O)Nc1ccc(S(=O)(=O)N(Cc2ccccc2Cl)C(C)C(=O)O)cc1 (configuration not stated) [2-{[(2-chlorophenyl)methyl](4-acetamidobenzene)sulfonamido}propanoic acid],3000
18,COc1ccc(S(=O)(=O)N(Cc2ccccc2Cl)C(C)C(=O)O)cc1 (configuration not stated) [2-{[(2-chlorophenyl)methyl](4-methoxybenzene)sulfonamido}propanoic acid],6000
19,Cc1ccc(S(=O)(=O)N(Cc2ccccc2Cl)C(C)C(=O)NO)cc1 (configuration not stated) [2-{[(2-chlorophenyl)methyl](4-methylbenzene)sulfonamido}-N-hydroxypropanamide],45
20,CC(C(=O)NO)N(Cc1ccccc1Cl)S(=O)(=O)c1ccc([N+](=O)[O-])cc1 (configuration not stated) [2-{[(2-chlorophenyl)methyl](4-nitrobenzene)sulfonamido}-N-hydroxypropanamide],15
21,CC(C(=O)NO)N(Cc1ccccc1Cl)S(=O)(=O)N(C)C (configuration not stated) [2-{[(2-chlorophenyl)methyl](dimethylsulfamoyl)amino}-N-hydroxypropanamide],77
22,CC(C(=O)NO)N(Cc1ccccc1Cl)S(C)(=O)=O (configuration not stated) [2-{[(2-chlorophenyl)methyl](methane)sulfonamido}-N-hydroxypropanamide],92
23,CC(C(=O)NO)N(Cc1ccccc1Cl)C(=O)Nc1cccc2ccccc12 (configuration not stated) [2-{[(2-chlorophenyl)methyl](naphthalen-1-ylcarbamoyl)amino}-N-hydroxypropanamide],11
24,CC(C(=O)O)N(Cc1ccccc1Cl)C(=O)Nc1cccc2ccccc12 (configuration not stated) [2-{[(2-chlorophenyl)methyl](naphthalen-1-ylcarbamoyl)amino}propanoic acid],5000
25,CC(C(=O)NO)N(Cc1ccccc1Cl)S(=O)(=O)c1cccc2ccccc12 (configuration not stated) [2-{[(2-chlorophenyl)methyl](naphthalene-1-)sulfonamido}-N-hydroxypropanamide],8
26,CC(C(=O)O)N(Cc1ccccc1Cl)S(=O)(=O)c1cccc2ccccc12 (configuration not stated) [2-{[(2-chlorophenyl)methyl](naphthalene-1-)sulfonamido}propanoic acid],1600
27,CC(C(=O)NO)N(Cc1ccccc1Cl)S(=O)(=O)c1ccc2ccccc2c1 (configuration not stated) [2-{[(2-chlorophenyl)methyl](naphthalene-2-)sulfonamido}-N-hydroxypropanamide],9

# Same assay, conditions: pH 7.5; 25 °C
row,Structure (SMILES),Ki [nM]
1,CC(C(=O)O)N(Cc1ccccc1Cl)S(=O)(=O)c1ccc(Br)cc1 (configuration not stated) [2-[(4-bromobenzene)[(2-chlorophenyl)methyl]sulfonamido]propanoic acid],10000
2,CC(C(=O)O)N(Cc1ccccc1Cl)S(=O)(=O)c1ccc(Cl)cc1 (configuration not stated) [2-[(4-chlorobenzene)[(2-chlorophenyl)methyl]sulfonamido]propanoic acid],13000
3,"CC(C(=O)O)N(Cc1ccccc1Cl)S(=O)(=O)C(F)(F)C(F)(F)C(F)(F)C(F)(F)F (configuration not stated) [2-{[(2-chlorophenyl)methyl](1,1,2,2,3,3,4,4,4-nonafluorobutane)sulfonamido}propanoic acid]",3000
4,"CC(C(=O)O)N(Cc1ccccc1Cl)S(=O)(=O)C(F)(F)C(F)(F)C(F)(F)C(F)(F)C(F)(F)C(F)(F)C(F)(F)C(F)(F)F (configuration not stated) [2-{[(2-chlorophenyl)methyl](1,1,2,2,3,3,4,4,5,5,6,6,7,7,8,8,8-heptadecafluorooctane)sulfonamido}propanoic acid]",1500
5,CC(C(=O)O)N(Cc1ccccc1Cl)S(=O)(=O)c1ccccc1[N+](=O)[O-] (configuration not stated) [2-{[(2-chlorophenyl)methyl](2-nitrobenzene)sulfonamido}propanoic acid],4900
6,CC(C(=O)O)N(Cc1ccccc1Cl)S(=O)(=O)c1cccc([N+](=O)[O-])c1 (configuration not stated) [2-{[(2-chlorophenyl)methyl](3-nitrobenzene)sulfonamido}propanoic acid],5000
7,CC(C(=O)O)N(Cc1ccccc1Cl)S(=O)(=O)c1ccc(F)cc1 (configuration not stated) [2-{[(2-chlorophenyl)methyl](4-fluorobenzene)sulfonamido}propanoic acid],12000
8,CC(C(=O)O)N(Cc1ccccc1Cl)S(=O)(=O)c1ccc(I)cc1 (configuration not stated) [2-{[(2-chlorophenyl)methyl](4-iodobenzene)sulfonamido}propanoic acid],10000
9,Cc1ccc(S(=O)(=O)N(Cc2ccccc2Cl)C(C)C(=O)O)cc1 (configuration not stated) [2-{[(2-chlorophenyl)methyl](4-methylbenzene)sulfonamido}propanoic acid],18000
10,CC(C(=O)O)N(Cc1ccccc1Cl)S(C)(=O)=O (configuration not stated) [2-{[(2-chlorophenyl)methyl](methane)sulfonamido}propanoic acid],21000
